According to patent US20250084169A1:

What was measured:
[1] = target: cynomolgus monkey Fc gamma receptor CD64 (cynomolgus monkey); experiment: BLI (Octet), cynomolgus FcγR on sensor
[2] = target: cynomolgus monkey B cells (in PBMC; carry CD19 and CD20); experiment: flow cytometry on PBMC B cells, anti-human Fcγ-PE
[3] = target: human B cells (viable CD3- CD40+ CD21+ cells in PBMC; carry CD19 and CD20); experiment: flow cytometry on PBMC B cells, anti-human Fcγ-PE

Substance | Fold (KD of rituximab / KD) [1] | Emax [2] | Emax [3]
FMC59-S239D/I332E (huFMC63-S239D/I332E) (antibody) | 10 fold | – | –
Tafasitamab-cxix (research grade biosimilar) (antibody) | 5.7 fold | – | –
human IgG1 isotype control (antibody) | – | 2700 gMFI | 3200 gMFI
